Target: human recombinant DPP-IV (Homo sapiens, UniProt P27487)
Experiment: Inhibition of human recombinant DPP-IV (Gly-Pro-AMC hydrolysis, fluorometric)
Type: biochemical
Details: 50 μM Gly-Pro-AMC, 30 min at 30° C., tested form: trifluoroacetic acid salt
Method: Inhibition of Human Recombinant DPP-IV
The proteolytic activity of human recombinant DPP-IV was determined by following the hydrolysis of Gly-Pro-7-amino-4-methylcoumarin (Gly-Pro-AMC) and the fluorometric quantitation of the liberated AMC. Assays were routinely carried out in 96-well flat-bottom black microwell plates. The reaction mixture (100 μl) contained 10 ng of human recombinant DPP-IV enzyme (produced in-house or procured from R&D Systems, USA) in the assay buffer (25 mM Tris-HCl, pH 7.4, 140 mM NaCl, 10 mM KCl and 0.1 mg/ml BSA) and 50 μM Gly-Pro-AMC. After incubation of assay plates at 30° C. for 30 min, the hydrolysis of Gly-Pro-AMC was monitored in a fluorescence microplate reader (Molecular Devices SpectraMax M5), with excitation and emission wavelengths set at 360 nm and 460 nm, respectively.
The inhibition of DPP-IV activity by test compounds was routinely performed by preincubating the enzyme with test compound (10 and 100 nM for primary screening and 8 concentrations from 0.1 to 1000 nM for the dose-response study) or vehicle (0.01% DMSO) for 15 min at 30° C., in a total volume of 90 μl. Test compounds were dissolved in DMSO at a concentration of 10 mM and serially diluted further in assay buffer. […]
The results are expressed as percent inhibition of the enzyme activity relative to vehicle controls. […]

Protein sequences, listed by entry. Tags and fused reporters are not part of them.
UniProt P27487, whole entry: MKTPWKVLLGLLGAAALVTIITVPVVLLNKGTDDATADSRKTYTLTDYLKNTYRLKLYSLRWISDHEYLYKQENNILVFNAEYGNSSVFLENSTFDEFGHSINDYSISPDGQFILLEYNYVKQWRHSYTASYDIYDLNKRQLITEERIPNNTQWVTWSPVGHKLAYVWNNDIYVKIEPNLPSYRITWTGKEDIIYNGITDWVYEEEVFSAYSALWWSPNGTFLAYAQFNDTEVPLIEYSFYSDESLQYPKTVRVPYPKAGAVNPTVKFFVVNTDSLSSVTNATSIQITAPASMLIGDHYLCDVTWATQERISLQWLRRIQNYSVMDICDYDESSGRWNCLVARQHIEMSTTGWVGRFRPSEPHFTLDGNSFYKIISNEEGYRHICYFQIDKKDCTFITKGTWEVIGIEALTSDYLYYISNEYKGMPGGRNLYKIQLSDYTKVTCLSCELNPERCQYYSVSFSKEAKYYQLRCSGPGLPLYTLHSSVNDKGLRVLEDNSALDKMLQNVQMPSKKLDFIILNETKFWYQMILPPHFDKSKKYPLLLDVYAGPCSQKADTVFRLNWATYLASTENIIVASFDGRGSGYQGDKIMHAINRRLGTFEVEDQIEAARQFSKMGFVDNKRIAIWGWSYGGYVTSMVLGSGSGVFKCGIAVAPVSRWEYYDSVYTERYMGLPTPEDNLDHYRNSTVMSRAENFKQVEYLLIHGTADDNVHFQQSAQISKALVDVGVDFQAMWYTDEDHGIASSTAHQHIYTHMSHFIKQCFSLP

IC50: 5.34 nM
Compound: N#C[C@@H]1CCCN1C(=O)C(N)C1CC2CCCC(C1)N2C(=O)c1ccc(C(F)(F)F)cc1 (stereo partly shown)
